# scFv variants of Ab-91 (heavy chain) against a SARS-CoV-2 spike peptide

Values reported by Engelhart et al. 2022, doi:10.1038/s41597-022-01779-4 (FLAb copy).

Antigen: PDVDLGDISGINAS, a 14-residue peptide of the SARS-CoV-2 spike HR2 region.

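The starting antibody came from a phage panning campaign against this peptide. The library (AAYL51) carries one to three amino acid substitutions per variant, with no insertions or deletions. The assay is AlphaSeq: two haploid yeast populations carry antibody and antigen on their surface. Binding brings cells together so that they mate, and sequencing counts the barcode pairs among the diploids. A regression on co-assayed BCL2-family reference pairs converts the normalised counts of each replicate to an apparent Kd. Each pool was mated in three replicate cultures.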

The variants keep the light chain, the linker and the frameworks of Ab-91 (scFv order VL, the linker GGGGSGGGGSGGGGS, VH).
VL: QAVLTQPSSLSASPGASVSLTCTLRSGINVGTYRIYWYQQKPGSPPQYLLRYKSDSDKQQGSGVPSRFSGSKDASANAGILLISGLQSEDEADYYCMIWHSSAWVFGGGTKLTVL
VH: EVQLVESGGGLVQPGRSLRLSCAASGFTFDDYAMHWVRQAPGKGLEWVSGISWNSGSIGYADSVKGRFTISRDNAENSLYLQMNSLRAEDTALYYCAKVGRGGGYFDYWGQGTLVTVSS

Variants are written as CDR1, CDR2 and CDR3 of the heavy chain (limits as in the source). Parent: GFTFDDYAMH, GISWNSGSIGYADSVK, VGRGGGYFDY. Affinities are written as log10 Kd with Kd in nM; a lower number is a better binder. An entry "n.d." has no value in the source: the pair was not observed among the diploids in that replicate. This suggests poor binding but is not conclusive.

| CDR-H1 | CDR-H2 | CDR-H3 | log10 Kd (nM) by replicate | empty controls |
|---|---|---|---|---|
| GFTFDDYAMH | EISWNSQSIGYADSVK | VGRLGGYFDY | n.d. / n.d. / n.d. | 0 of 9 |
| GFLFDDYVMH | GISWNSGSIGYADSVK | FGRGGGYFDY | n.d. / 5.26 / n.d. | 3 of 9 (4.28) |
| GFSFDDYAMH | GIFWNSGSIGYADSVY | VGRGGGYFDY | 4.84 / n.d. / 5.05 | 4 of 9 (5.74) |
| GFTFDDYARH | GISWNSGSIGKADSVK | VGRGGGYFEY | 4.95 / n.d. / n.d. | 1 of 9 (4.67) |
| GFTANWYAMH | GISWNSGSIGYADSVK | VGRGGGYFDY | n.d. / n.d. / n.d. | 3 of 9 (4.18) |
| GFTFDDYAMH | GTSWNSGSIGYADKVK | VGRQGGYFDY | 5.59 / n.d. / n.d. | 4 of 9 (4.09) |
| GFTFDDYAMH | GISWNSGSIGYASSVK | VGKGGGYFSY | 1.74 / 1.77 / 1.63 | 3 of 9 (3.40) |
| GFTFDDSAMH | GISWKSGSIGYADSVK | VGRGGGYFDY | n.d. / n.d. / n.d. | 1 of 9 (4.78) |
| GFTFDDYKMH | GISWNSGSIGYADSVS | VGRGGGYFDY | 5.14 / 5.75 / n.d. | 3 of 9 (5.14) |
| GFTTDDLAMH | GISWNSGSIGYADEVK | VGRGGGYFDY | n.d. / n.d. / n.d. | 0 of 9 |
| GFTNDDYAMH | GISWNSGSIGYADSVK | VGRGSGYFDY | n.d. / n.d. / n.d. | 3 of 9 (4.41) |
| GFTFDDYAMH | GLSWNSGSIGYADSVK | VGRGGSYFDL | 5.17 / 5.46 / n.d. | 3 of 9 (4.68) |
| GFTFDDYAMH | GISWNSGSIGPADSVK | VGREGTYFDY | n.d. / n.d. / n.d. | 1 of 9 (3.05) |
| GFTFDDYAMH | GISWNSGSIYYADSVK | VGRGGGYFDY | n.d. / n.d. / n.d. | 0 of 9 |
| GFTFDDYAMG | GISWNRGSIGYADSVK | VGRGGLYFDY | n.d. / n.d. / n.d. | 2 of 9 (3.70) |
| GFTFDDYAMH | GISWNSGSIGYADSVK | KGRGGGYFDY | n.d. / 4.72 / n.d. | 1 of 9 (3.30) |
| GFTFDDYAMH | GISWNSGQIGYADSVK | VGRGGGYFDY | 2.55 / 2.75 / 2.24 | 2 of 9 (4.05) |
| GFTFDDYLMH | GISWNSGSIGYADSVK | VGNGGGYWDY | n.d. / n.d. / n.d. | 0 of 9 |
| IFTFDHYAMH | KISWNSGSIGYADSVK | VGRGGGYFDY | n.d. / n.d. / n.d. | 0 of 9 |
| GFTFDCYAMH | GISWNSGSEYYADSVK | VGRGGGYFDY | n.d. / n.d. / 4.37 | 0 of 9 |
| GCTFDDYWMH | MISWNSGSIGYADSVK | VGRGGGYFDY | 5.68 / 4.37 / n.d. | 2 of 9 (4.78) |
| GFTFDDYAMH | GISWNTGSKGYADSVK | VGRGGAYFDY | 0.56 / 0.59 / -0.13 | 8 of 9 (5.24) |
| CFTFDDYAMH | HISWNSGSIGYADSVK | VGRGGGRFDY | n.d. / n.d. / n.d. | 0 of 9 |
| GFTFDDYAMH | GIGWNSGSIGYANSVK | VGMGGGYFDY | 2.26 / 2.57 / 2.19 | 1 of 9 (2.74) |
| GFTFDDYAMH | GISWNVGSIGTADSVK | PGRGGGYFDY | 5.81 / n.d. / n.d. | 1 of 9 (3.85) |
| GFAFIDYAMH | GISWNSGSIGYADSVK | VGRSGGYFDY | n.d. / 4.45 / 5.22 | 5 of 9 (4.70) |
| GFTFEDYAMH | GISWNSGSIGGADSVK | NGRGGGYFDY | n.d. / n.d. / 3.25 | 0 of 9 |
| GFTFDDTAMH | GISWRSGSIGYADSVK | VGRGGGYFDR | 2.23 / 2.36 / 2.17 | 6 of 9 (5.55) |
| GFTFDDYAMH | GISWNSGSIGYATSVK | VGRGGAYFDI | 4.16 / 5.36 / 5.02 | 4 of 9 (4.72) |
| VFTFDDYAMH | GISWNDGTIGYADSVK | VGRGGGYFDY | 3.99 / 6.36 / 5.23 | 1 of 9 (4.05) |
| GHQFDDYAMH | GISWNSGSIGYADSVK | VGRRGGYFDY | 3.98 / 5.53 / 5.02 | 3 of 9 (5.20) |
| GFYFDDYAMH | GISWNSGSIGYWDSVK | VGRGGGYFDY | n.d. / 3.22 / n.d. | 2 of 9 (3.80) |
| RFTFDDYPMH | GISWNSGSIGYADSVK | VGRGGKYFDY | 4.41 / 6.04 / 4.62 | 5 of 9 (5.02) |
| GFTFDDYYMH | GISWNSGSIGYADSVD | VGRGSGYFDY | n.d. / 3.70 / n.d. | 4 of 9 (4.40) |
| GFTFDDYAWH | GISWNSGSIGPAWSVK | VGRGGGYFDY | n.d. / n.d. / n.d. | 2 of 9 (4.96) |
| GFTFDDYAMH | GISWLSGEIGYADSVK | RGRGGGYFDY | n.d. / n.d. / n.d. | 2 of 9 (3.87) |
| GFTFDDYAMI | GIIWNSGSIGYADSVK | VGRGGGYFDY | n.d. / n.d. / n.d. | 2 of 9 (4.23) |
| GFTFDDYAMH | GISWQSGSIGYADSDK | VGRGGGYFDK | 2.82 / n.d. / n.d. | 0 of 9 |
| GFTFDDYAMY | GISWNSGSIGYQDSVK | VGRGGGYFDY | n.d. / n.d. / n.d. | 2 of 9 (3.94) |
| GFTFDSTAMH | GISWNSGSIGYADSVV | VGRGGGYFDY | 1.08 / 1.05 / 0.54 | 8 of 9 (5.41) |
| GFTFDDYAMH | GISWNSRSIGCADSVK | VGRGLGYFDY | 4.12 / 2.67 / n.d. | 1 of 9 (3.11) |

For reference, the parent read 1.86 as the reference entry and 0.88 as a member of this library. Empty control strains, which show no peptide, gave a signal in 21% of pairings with library AAYL51; the median was 4.54 and 95% of these signals were weaker than 3.26. No background was subtracted. The control count says in how many pairings with the empty strains this scFv gave a signal, with their mean in brackets.